This data set is described as follows: THC degradation on heating of cannabis oil films (gas-liquid chromatography). To be noted: dry films with 14 mg cannabis oil, 1.5 hours at 100° C.

This is an account of results in patent publication US12324800B2 (priority 2019, dated 2025).

As for `CC(C)(C)c1cc(O)ccc1O` [TBHQ, tert-butylhydroquinone], the “degradation of THC on heating” value is “prevented”.
